Source: US6677299B2, “Method to increase cerebral blood flow in amyloid angiopathy” (The Trustee of Columbia University in the city of New York, priority 2000, dated 2004)

Protein sequences, listed by entry. Tags and fused reporters are not part of them. Residues count along the entry.
UniProt Q62151, 23-402: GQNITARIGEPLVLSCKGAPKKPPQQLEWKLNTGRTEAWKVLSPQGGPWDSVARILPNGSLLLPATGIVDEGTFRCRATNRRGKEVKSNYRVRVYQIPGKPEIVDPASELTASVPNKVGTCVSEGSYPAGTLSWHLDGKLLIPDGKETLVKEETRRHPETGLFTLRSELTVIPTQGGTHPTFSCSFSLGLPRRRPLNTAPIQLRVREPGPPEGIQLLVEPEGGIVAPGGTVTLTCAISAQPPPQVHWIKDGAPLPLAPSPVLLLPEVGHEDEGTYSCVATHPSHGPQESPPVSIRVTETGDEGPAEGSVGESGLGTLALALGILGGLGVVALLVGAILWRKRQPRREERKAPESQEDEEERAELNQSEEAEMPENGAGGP

Experiments:
Format in all cases: in vivo, mice
RAGE [1] = biological target: T1, RAGE (Mus musculus, UniProt Q62151); assay: Aβ-induced cytokine expression and oxidant stress in brain (TNF-α, IL-6, HO-1) after BBB transport of circulating Aβ1-40
T1 construct: The first set of studies employed synthetic Aβ infused in to wild-type mice; from tissue; host or cells: brain vasculature (blood-brain barrier) of living wild-type mice
Description: FIGS. 2A-2C. Effect of RAGE blockade on Aβ-induced cytokine expression and oxidant stress in brain after BBB transport of circulating Aβ1-40. Expression of TNF-α mRNA (left) and protein (right) (FIG. 2A), and immunocytochemical detection of IL-6 (FIG. 2B) and HO-1 (FIG. 2C) 15 min following transport of human Aβ1-40 (4 nM) across the BBB in the presence or absence of α-RAGE (40 mg/ml) or sRAGE (40 nM) in the arterial inflow in a brain perfusion model. Graphs in FIGS. 2A-2C illustrate image analysis of immunocytochemical experiments in which mice were treated with either vehicle, Aβ1-40 alone, or Aβ1-40 plus α-RAGE or sRAGE, as indicated.
Brain perfusion model. This model has bee extensively used to determine peptide and protein binding to and transport across the BBB.^22,23,38,39 For intra-arterial brain perfusion technique mice were anesthetized with i.p. ketamine (0.5 mg/kg) and xylazine (5 mg/kg), and the right common carotid artery isolated and connected to an extracorporeal perfusion circuit via fine polyethylene cannula (PE10). […] Perfusion pressure and animal's own arterial blood pressure were continuously monitored. Blood gasses pO2, pCO2 and pH and electrolytes in the arterial inflow and in animal's own blood were monitored. […]
Immunocytochemical analysis: for TNF-α, IL-6 and HO-1 in brains of wild type mice and TgAPPsw+/− mice was performed using standard techniques, as described (26). Briefly, fresh-frozen, acetone-fixed brain sections of wild type and TgAPPsw+/− mice were stained with anti-TNF-a IgG (Santa Cruz), anti-IL-6 IgG (Santa Cruz and anti-HO-1 IgG (StressGen) as primary antibodies. The extent and intensity of staining in cellular elements was quantitated using the Universal Imaging System and NIH imaging systems. The relative intensity of cellular staining in control brain sections was compared to treated brains. Routine control sections included deletion of primary antibody, deletion of secondary antibody and the use of an irrelevant primary antibody.

RAGE [2] = biological target: T1, RAGE; assay: Cerebral blood flow (CBF) after i.v. administration of Aβ1-40, laser Doppler flowmetry
Description: Cerebral blood flow measurement: CBF was monitored by Laser Doppler Flowmetry (LDF, Transonic BLF21, NY) as we described. ^36LDF probes (0.8 mm diameter) were positioned on the cortical surface 2 mm posterior to the bregma, both 3 and 6 mm to each side of midline. The CBF was also determined by quantitative autoradiography using ^14C-iodoantipryine (IAP) using recently reported modified method in the whole mouse. ^37Briefly, 0.15 μCi ^14C-IAP was injected i.p. and animals sacrificed after 2 min. Blood from the frozen heart was sampled to obtain the final blood ^14C-IAP level. Frozen brains were coronally sectioned at 20 μm and exposed to autoradiographic film along with radioactive ^14C standards. After a 5 day exposure, the film was developed and the resulting images analyzed by quantitative autoradiography to determine levels of ^14C-IAP in individual brain regions. The CBF was calculated as reported:^37,40 F=−λln (1−CIN (T)/λ CPL)/T, where F is the rate of flow per unit mass(^−1), CIN (T) is activity in unit weight of brain at time T, CPL is the concentration of ^14C-IAP in the blood, and λ is the distribution ratio of ^14C-IAP between brain and the perfusion medium or blood at the steady state, i.e. 0.8.

RAGE [3] = biological target: T1, RAGE; assay: Brain perfusion model: Aβ binding to brain capillaries and transport across the BBB; details: reagent in arterial inflow; 125I-Aβ 4 nM, 10 min
Description: FIGS. 1A-1F. […] FIG. 1A and bFIG.
Brain perfusion model. […] Details of the extracorporeal perfusion circuit were as reported elsewhere. ^22,23,38,39 At the start of the perfusion, the contralateral common carotid artery was ligated, and both jugular veins severed to allow free drainage of the perfusate. Brains were perfused with oxygenated perfusion medium at a flow rate of 1 ml/min by peristalitic pump. […] Perfusion pressure and animal's own arterial blood pressure were continuously monitored. Blood gasses pO2, pCO2 and pH and electrolytes in the arterial inflow and in animal's own blood were monitored.
Injection of radioisotopes for transport studies. […] When the effects of different unlabeled molecular reagents were tested, those were injected 5 min prior to tracers injection and than simultaneously with radiolabled ligands. At predetermined times within 10 min mice were sacrificed by decapitation, and brain tissue prepared for radioactivity analysis. TCA and HPLC analysis as we described were used to determine molecular forms of uptake of radiolabeled Aβ by the BBB.^22,23 Capillary-depletion technique was used to separate micravascular pellet from capillary-depleted brain to quantify in vivo binding to microvessels vs. transport into brain parenchyma, as we reported.^22, 23
Mathematical modeling for transport studies. […] The rate of entry (KIN) is computed from eq. […]

[4] = after Aβ transport across the BBB

Aβ-induced TNF-β expression (RAGE [1]; 15 min after transport of circulating Aβ across the BBB): abolished
Aβ-induced neuronal expression of HO-1 (RAGE [1]; [4]): abolished
Aβ-induced neuronal expression of IL-6 (RAGE [1]; [4]): abolished
Aβ-induced cerebral vasospasm (RAGE [2]; FIG. 3c): abolished
CBF changes produced by murine or human Aβ1-40 (RAGE [2]; α-RAGE 1-10 mg/ml, sRAGE 40 nM, CBF values between 30 and 45 min after i.v. administration of peptides): blocked
effect on Aβ transport into brain (BBB transport of Aβ) (RAGE [3]): abolished
Substance: sRAGE: soluble receptor for advanced glycation endproduct
